Biological target: Sodium-dependent serotonin transporter (Homo sapiens, UniProt P31645)
Assay type: cell-based, HEK293

Amino acid sequences for entries named in this document (tags omitted).
UniProt P31645, whole entry: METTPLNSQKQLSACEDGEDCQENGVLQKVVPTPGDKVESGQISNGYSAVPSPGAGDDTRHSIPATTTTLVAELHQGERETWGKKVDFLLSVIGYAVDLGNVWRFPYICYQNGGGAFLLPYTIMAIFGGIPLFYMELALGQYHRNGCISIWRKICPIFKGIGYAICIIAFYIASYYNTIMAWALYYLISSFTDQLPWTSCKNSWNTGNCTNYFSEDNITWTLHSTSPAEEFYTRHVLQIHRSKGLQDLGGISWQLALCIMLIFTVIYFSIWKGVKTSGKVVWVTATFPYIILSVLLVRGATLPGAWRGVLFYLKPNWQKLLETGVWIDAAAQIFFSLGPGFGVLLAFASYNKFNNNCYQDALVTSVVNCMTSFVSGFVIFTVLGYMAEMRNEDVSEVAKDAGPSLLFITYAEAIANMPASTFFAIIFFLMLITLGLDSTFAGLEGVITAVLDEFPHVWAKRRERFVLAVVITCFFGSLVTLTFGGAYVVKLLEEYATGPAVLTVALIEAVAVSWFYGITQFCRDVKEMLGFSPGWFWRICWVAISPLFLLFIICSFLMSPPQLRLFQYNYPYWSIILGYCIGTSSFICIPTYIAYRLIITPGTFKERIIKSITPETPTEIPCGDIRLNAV

CN[C@H]1CC[C@@H](c2ccc(Cl)c(Cl)c2)c2cc(C(=O)N(C)C)ccc21
IC50: 7 nM

CN[C@H]1CC[C@@H](c2ccc(Cl)c(Cl)c2)c2ccc(C(=O)O)cc21
IC50: 90 nM

CN[C@H]1CC[C@@H](c2ccc(Cl)c(Cl)c2)c2cc(S(C)(=O)=O)ccc21
IC50: 54 nM

CN[C@H]1CC[C@@H](c2ccc(Cl)c(Cl)c2)c2ccc(C(=O)OC)cc21
IC50: 5 nM

CN[C@H]1CC[C@@H](c2ccc(Cl)c(Cl)c2)c2cc(C(=O)O)c(NS(C)(=O)=O)cc21
IC50: 65 nM

CN[C@H]1CC[C@@H](c2ccc(Cl)c(Cl)c2)c2cc(C(N)=O)c(NS(C)(=O)=O)cc21
IC50: 24 nM

CN[C@H]1CC[C@@H](c2ccc(Cl)c(Cl)c2)c2ccc(S(=O)(=O)NC)cc21
IC50: 5 nM

CN[C@H]1CC[C@@H](c2ccc(Cl)c(Cl)c2)c2ccc(C[S+](C)[O-])cc21 (some centres undefined)
IC50: 340 nM

CN[C@H]1CC[C@@H](c2ccc(Cl)c(Cl)c2)c2cccc(C(N)=O)c21
IC50: 8 nM
